The values below come from patent US20250289888A1.

Amino acid sequences for entries named in this document (tags omitted). Residues count along the entry.
UniProt P08637, 17-254, stated change not applied: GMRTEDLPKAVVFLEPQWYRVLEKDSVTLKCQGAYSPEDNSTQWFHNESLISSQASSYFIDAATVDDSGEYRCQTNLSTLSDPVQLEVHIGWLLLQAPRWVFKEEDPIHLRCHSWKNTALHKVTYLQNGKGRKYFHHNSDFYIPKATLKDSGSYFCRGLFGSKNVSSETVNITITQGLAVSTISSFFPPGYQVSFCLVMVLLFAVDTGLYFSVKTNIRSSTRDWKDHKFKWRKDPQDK
UniProt P12318, 34-317, stated change not applied: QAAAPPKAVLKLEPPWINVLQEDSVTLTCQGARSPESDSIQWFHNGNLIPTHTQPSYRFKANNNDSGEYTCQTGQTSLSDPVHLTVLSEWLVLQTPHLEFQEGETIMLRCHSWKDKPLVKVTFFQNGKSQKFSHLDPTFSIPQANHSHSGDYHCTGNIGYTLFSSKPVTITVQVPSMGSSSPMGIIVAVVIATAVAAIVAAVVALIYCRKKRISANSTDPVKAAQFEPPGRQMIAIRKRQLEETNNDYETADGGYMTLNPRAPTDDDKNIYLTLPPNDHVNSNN
UniProt P31994, 43-310: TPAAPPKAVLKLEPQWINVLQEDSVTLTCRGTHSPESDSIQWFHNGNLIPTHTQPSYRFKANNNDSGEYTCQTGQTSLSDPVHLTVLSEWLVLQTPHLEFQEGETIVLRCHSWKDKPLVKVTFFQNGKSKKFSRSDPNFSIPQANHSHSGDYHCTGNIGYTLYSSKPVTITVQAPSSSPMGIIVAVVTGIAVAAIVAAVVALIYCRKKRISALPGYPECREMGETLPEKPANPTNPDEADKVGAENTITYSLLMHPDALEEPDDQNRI
UniProt P08508, 31-261: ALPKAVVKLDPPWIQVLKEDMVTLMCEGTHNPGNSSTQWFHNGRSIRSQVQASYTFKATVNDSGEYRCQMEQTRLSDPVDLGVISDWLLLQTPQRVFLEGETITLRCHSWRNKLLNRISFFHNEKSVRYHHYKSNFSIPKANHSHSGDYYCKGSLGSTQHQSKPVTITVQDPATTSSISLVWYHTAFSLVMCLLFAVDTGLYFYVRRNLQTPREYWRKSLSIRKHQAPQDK

Test in all cases: cell-based or functional assay
Assay [1] deals with human FcγRIIIa, V variant (human) (UniProt P08637).
In assay [2] the target is human FcγRIIIa, F variant (human) (UniProt P08637).
The target of assay [3] is human FcγRIIa, H variant (human) (UniProt P12318).
Assay [4] deals with human FcγRIIa, R variant (human) (UniProt P12318).
Assay [5] has as its target human FcγRIIb (human) (UniProt P31994).
Assay [6] addresses mouse FcγRIII (mouse) (UniProt P08508).
Assay [7] concerns the target mouse FcγRIV (mouse).

“And” between values parts separate entries of the source, which are not always exact repeats. Identical values can stand only once.

As to GIGA-564 (antibody), in assay [1], the EC50 (ug/mL), Plate 1, hFcγRIIIa Fc effector activity bioassay was 0.0036 µg/mL and 0.0048 µg/mL; the EC50 (ug/mL), Plate 2, hFcγRIIIa Fc effector activity bioassay was 0.0102 µg/mL.

As for GIGA-564_LALA-PG (antibody), the Maximum luminescence (RLU) in assay [2] amounted to 2430 RLU; in assay [1] it was 4260 RLU; in assay [3], 210 RLU; in assay [4], 1570 RLU; in assay [5], 978 RLU; in assay [6] it was 1160 RLU. The substance also registered a Maximum luminescence (RLU) in assay [7] of 297 RLU.
